The target of this test is human glucocorticoid receptor (Homo sapiens, UniProt P04150). In words: Glucocorticoid Receptor Binding Assay (fluorescence polarization competitor kit). Conditions: read-out: GR (Ki, nM) (GR Binding Assay); purified human recombinant full-length GR 2 nM, 1 nM Fluormone GS Red, 2 h room temperature. As to the method:
Glucocorticoid Receptor Binding Assay
In order to assess the affinity of test compounds for the human glucocorticoid receptor, a commercially available kit was used (Glucocorticoid Receptor Competitor Assay Kit, Invitrogen Part #2893). Briefly, purified human recombinant full-length glucocorticoid receptor (2 nM) was mixed with fluorescently labeled glucocorticoid (1 nM Fluormone GS Red) in the presence or absence of test compound. After two hour incubation at room temperature in the dark, the fluorescence polarization (FP) of the samples was measured. The FP of a mixture of receptor, fluorescent probe (i.e. Fluormone GS Red) and 5 μM dexamethasone represented background fluorescence or 100% inhibition, whereas, the FP of the mixture without dexamethasone (but in the presence of vehicle) was taken to be 100% binding. The percentage inhibition of test compounds were then compared to the sample with 5 μM dexamethasone and expressed as % relative binding activity, with dexamethasone being 100% and no inhibition being 0%. Test compounds were analyzed in the concentration range from 8.5E-05 μM to 5 μM.

Protein sequences, listed by entry. Tags and fused reporters are not part of them.
UniProt P04150, whole entry: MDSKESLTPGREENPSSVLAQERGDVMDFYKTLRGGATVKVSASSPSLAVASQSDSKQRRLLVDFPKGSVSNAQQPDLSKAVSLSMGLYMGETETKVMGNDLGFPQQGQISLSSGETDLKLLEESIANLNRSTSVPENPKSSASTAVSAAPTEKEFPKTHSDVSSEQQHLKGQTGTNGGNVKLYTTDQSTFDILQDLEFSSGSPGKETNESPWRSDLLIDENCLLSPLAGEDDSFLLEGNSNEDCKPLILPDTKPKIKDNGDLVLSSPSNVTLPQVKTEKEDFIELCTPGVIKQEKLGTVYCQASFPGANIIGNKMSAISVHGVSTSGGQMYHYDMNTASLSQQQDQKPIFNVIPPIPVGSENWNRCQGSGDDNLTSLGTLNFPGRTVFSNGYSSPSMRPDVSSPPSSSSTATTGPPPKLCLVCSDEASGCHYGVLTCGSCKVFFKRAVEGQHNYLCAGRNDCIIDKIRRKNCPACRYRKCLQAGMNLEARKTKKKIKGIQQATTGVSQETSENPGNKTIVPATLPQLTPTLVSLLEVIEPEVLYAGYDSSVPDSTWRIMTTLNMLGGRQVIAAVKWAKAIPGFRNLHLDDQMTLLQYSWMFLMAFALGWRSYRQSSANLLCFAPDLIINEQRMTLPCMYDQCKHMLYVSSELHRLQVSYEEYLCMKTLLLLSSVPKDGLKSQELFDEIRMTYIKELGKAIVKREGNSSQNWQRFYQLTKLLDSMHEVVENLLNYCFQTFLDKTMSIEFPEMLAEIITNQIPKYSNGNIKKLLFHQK

As to `CC(C)(C(=O)Nc1nncs1)C(c1ccccc1)c1ccc2c(-c3ccc(C#N)cc3)ncn2c1` (stereo not shown), the Ki amounted to 20 nM.

For the origin of these results see patent publication US7994190B2, “Modulators of glucocorticoid receptor, AP-1, and/or NF-κB activity and use thereof” (Bristol-Myers Squibb Company, priority 2006, dated 2011).
